The text below walks through data of patent US20260241020A1, “Antibody-drug conjugate, and preparation method therefor and use thereof” (priority 2023, published 2026).

For the experiment, the system named is NCI-N87 gastric cancer xenograft. Nature of the experiment: Efficacy of anti-human Her2 antibody-drug conjugates in the NCI-N87 subcutaneous tumor-bearing mouse model. The note with it: 1 mg/kg i.v., conjugates of the invention dosed Day 0 and 7, DS8201 Day 0, 7 and 14. The experiment is classed as in vivo, female Balb/c-Nude mice. As to the method:
NCI-N87 cells were cultured in RPMI 1640 medium supplemented with 10% fetal bovine serum at 37° C. and 5% CO2. NCI-N87 cells in the exponential growth phase were harvested, resuspended in PBS to an appropriate concentration, and then subcutaneously inoculated into female Balb/c-Nude mice to establish a gastric cancer model. […] Each group received the administration via tail vein injection (i.v.). The conjugates of the present invention were administered on Day 0 and Day 7, for a total of two doses. […] After administration, tumor diameters were measured twice a week using a vernier caliper, and tumor volume was calculated according to the following calculation formula: V=0.5 a×b^2, where a and b represent the long diameter and short diameter of the tumor, respectively. Animal mortality was observed and recorded daily.
The tumor growth inhibition rate TGI (%) was calculated using the following formula to evaluate the tumor-inhibitory efficacy of the ADCs:
[formula] • where, • VT end: mean tumor volume of the treatment group at the end of experiment • VT0: mean tumor volume of the treatment group at the beginning of administration • VC end: mean tumor volume of the negative control group at the end of experiment • VC0: mean tumor volume of the negative control group at the beginning of administration […]

Turning to DS8201 [reference compound], the “TGI (%) tumor growth inhibition rate” value (Day 27, vs. Vehicle) turned out to be 91.25%. The “Tumor volume (mm^3) (x ± SEM)” value (Day 27) came out at 194.7 ± 48.78 mm^3.
